Assay results reported in US20030064380A1, “Anergy-regulated molecules” (The Center For Blood Research, Inc., priority 2001, published 2003).

System: D5 T cells
Assay: proliferation assay (3H-thymidine) of D5 T cells after ionomycin pretreatment
Type: cell-based, murine
Method: D5 or primary T cells were stimulated with APC and antigen and pulsed for 24 hours with 10 μCi/ml ^3H-thymidine. DNA was collected using a cell harvester and the amount of radioactivity incorporated was measured in a β-counter.
The murine antigen-specific Th1 clone D5 was used to set up the model of clonal anergy developed by Schwartz and coworkers (Schwartz, (1996) J. Exp. Med. 184: 1-8).

IL-2: cytokine; exposure to it overcame anergy
anergy of ionomycin-pretreated D5 T cells on exposure: overcome
